Measurements published in US20150166646A1, “Methods and Compositions for Treating or Diagnosing Melanoma” (The Wistar Institute of Anatomy and Biology, priority 2012, published 2015).

Tested on: macrophages
Assay: Macrophage growth (WST-1) and cell death
Assay type: cell-based, human
Settings: 72 hours

CCCS(=O)(=O)Nc1ccc(F)c(C(=O)c2c[nH]c3ncc(Cl)cc23)c1F [PLX4720]
macrophage growth: promotes macrophage growth
